Only a part is listed here, and it is no random draw. Activity calls are given as the source filed them. Cut-off read from the data, not from the text of the source: active = inhibition above about 32%; inactive = the rest.

A word on the inhibition: it is the change of the read-out against control, counted positive when it falls.

This test can be described thus: TEAD-YAP interaction inhibition, primary screen, TEAD-YAP interaction inhibitor project, luminescence, HEK-TIYL cells (AID 1259422).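 Note: 0% = median of test compound wells and 100% = reference inhibitor wells.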 As to conditions: TEAD-Gal4/YAP UAS-luciferase luminescence, at 9.12 µM, stronger effect = higher value.
Consider `CC(=O)c1cccc(NC(=O)N(Cc2ccco2)C2CCN(CCc3ccccn3)CC2)c1`, for which the inhibition was inactive: -2.35%.

Turning to `O=C(Oc1ccc([N+](=O)[O-])cc1[N+](=O)[O-])c1cc([N+](=O)[O-])cc([N+](=O)[O-])c1`, the inhibition is inactive: 2.43%.

In the case of `O=[N+]([O-])c1cccc(P(=O)(Nc2ccccn2)c2cccc([N+](=O)[O-])c2)c1`, the inhibition is inactive: 13.7%.

For `CC1(C)Nc2ccccc2OP1(=O)c1ccccc1` (stereo not drawn), the inhibition is inactive: 0.41%.

With `Cc1ccnc(NP2(=O)C=C(c3ccccc3)OC(c3ccccc3)=C2)c1`, the inhibition is inactive: 10.3%.

With `CCOC(=O)NC(Sc1cc(C)ncn1)C(Cl)(Cl)Cl` (stereo not drawn), the inhibition was inactive: 1.62%.

Take `O=[N+]([O-])c1ccc(Nc2ccc([N+](=O)[O-])cc2[N+](=O)[O-])c(O)c1`: the inhibition is inactive: 10.7%.

As to `CN(C(=O)Cc1ccccc1)[C@@H]1CC[C@]2(CCCO2)C[C@H]1N1CCCC1`, the inhibition is inactive: 2.23%.

In the case of `Cc1ncc(-c2ccccc2)c2ccccc12`, the inhibition is inactive: -1.03%.

For the molecule `O=C(COC(=O)C(O)(c1ccccc1)c1ccccc1)NC(=O)NCc1ccccc1`, the inhibition is inactive: -6.19%.

Consider `Cc1ccc(NC2=NCC(CBr)S2)cc1` (stereo not drawn), for which the inhibition was inactive: -6.12%.

For the molecule `O=[N+]([O-])c1ccc(N/N=C/c2ccc(Cl)c([N+](=O)[O-])c2)c([N+](=O)[O-])c1`, the inhibition was inactive: 1.76%.

With `NC(=O)c1nsnc1NCCCl`, the inhibition was inactive: 3.1%.

For the molecule `CCOc1ccc2nc(NCCCl)[nH]c2c1`, the inhibition is inactive: -26.2%.

For `CC(=O)NC(SC1=NCCS1)C(Cl)(Cl)Cl` (stereo not drawn), the inhibition is inactive: -2.47%.

As to `O=P(Nc1ccccn1)(c1ccccc1)c1ccccc1`, the inhibition was inactive: -0.9%.

In the case of `Cn1cnc([N+](=O)[O-])c1SCCCl`, the inhibition was inactive: -6.58%.

In the case of `NC(=O)COC(=O)C1(O)c2ccccc2-c2ccccc21`, the inhibition was inactive: 8.07%.

Take `CCOP1(=O)Oc2ccccc2OC1c1ccccc1` (stereo not drawn): the inhibition is inactive: -6.8%.

With `O=P(Nc1nccs1)(Oc1ccccc1)Oc1ccccc1`, the inhibition is inactive: 7.25%.

In the case of `O=P(Nc1nccs1)(c1ccccc1)c1nc2ccccc2s1` (stereo not drawn), the inhibition is inactive: -4.66%.

Take `O=C(c1cccnc1)N(Cc1cccnc1)C1CCN(CCc2cccs2)CC1`: the inhibition was inactive: -6.79%.

For the molecule `CCC(C(=O)OC1CN2CCC1CC2)c1ccccc1` (stereo not drawn), the inhibition is inactive: 2.48%.

As to `CCOP(=O)(Nc1cccc2ccccc12)OCC`, the inhibition was inactive: -0.22%.

As for `O=C(N/N=C\c1ccc([N+](=O)[O-])cc1)c1cc([N+](=O)[O-])cc([N+](=O)[O-])c1O`, the inhibition is inactive: -0.67%.

On to `CCOC(=O)C(C(=O)OCC)C(O)c1c([N+](=O)[O-])cc([N+](=O)[O-])cc1[N+](=O)[O-]` (stereo not drawn), for which the inhibition was inactive: -4.11%.

In the case of `O=C(Nc1cccc([N+](=O)[O-])c1)c1ccc([N+](=O)[O-])cc1[N+](=O)[O-]`, the inhibition is inactive: -8.18%.

On to `Cc1ccc(NCCc2c([N+](=O)[O-])cc([N+](=O)[O-])cc2[N+](=O)[O-])cc1`, for which the inhibition is inactive: 6.53%.

Take `BrCC1CN=C(Nc2ccccc2)S1` (stereo not drawn): the inhibition was inactive: -10.9%.

As to `COc1cc(-n2cnnn2)ccc1-n1cnnn1`, the inhibition was inactive: 4.2%.

Turning to `Cc1cccc(OCC(=O)OC2CN3CCC2CC3)c1` (stereo not drawn), the inhibition was inactive: 6.7%.

As for `CC(C)OP(=O)(OC(C)C)C(=O)c1ccco1`, the inhibition is inactive: -31.8%.

Consider `Cc1cc(Br)c(Nc2c([N+](=O)[O-])cc([N+](=O)[O-])c3nonc23)cc1[N+](=O)[O-]`, for which the inhibition was inactive: -6.06%.

Consider `COP(=O)(Nc1ccc(C)cc1)OC`, for which the inhibition is inactive: -5.24%.

Regarding `Cc1cc(NC(=O)NP(=O)(O)O)n(-c2ccccc2)n1`, the inhibition is inactive: -1.92%.

In the case of `CCOP1(=O)N=C(c2ccc(Br)cc2)NC(=O)N1` (stereo not drawn), the inhibition is inactive: -14.4%.

With `CN(C(=O)Cc1ccc(Cl)c(Cl)c1)[C@@H]1CC[C@]2(CCCO2)C[C@H]1N1CCCC1`, the inhibition was inactive: -3.29%.

On to `COc1cc([N+](=O)[O-])cc([N+](=O)[O-])c1N/N=C(/C)c1cccc([N+](=O)[O-])c1`, for which the inhibition was inactive: 3.78%.

For `CC(Cl)(CSSCC(C)(Cl)C(=O)O)C(=O)O` (stereo not drawn), the inhibition was inactive: -0.88%.

As to `COC(=O)c1nsnc1NCCCl`, the inhibition was inactive: 9.66%.

As to `CC1(CBr)Cn2c(nc3ccccc3c2=O)S1` (stereo not drawn), the inhibition was inactive: 9.73%.

For the molecule `Cc1ccc(S(=O)(=O)NCCCCC(NC(=O)OC(C)(C)C)C(=O)O)cc1` (stereo not drawn), the inhibition is inactive: 3.61%.

On to `CCCCC(NC(=O)OC(C)(C)C)C(=O)O` (stereo not drawn), for which the inhibition is inactive: -0.02%.

Turning to `O=C(Nc1ccc(Br)cc1[N+](=O)[O-])c1cc([N+](=O)[O-])cc([N+](=O)[O-])c1`, the inhibition was inactive: 11%.

Take `COC(=O)c1cc([N+](=O)[O-])c(Nc2ccc([N+](=O)[O-])cc2Br)c([N+](=O)[O-])c1`: the inhibition is inactive: -8.98%.

For the molecule `CCc1cccc(NC(=O)Oc2c([N+](=O)[O-])cc([N+](=O)[O-])cc2[N+](=O)[O-])c1`, the inhibition was inactive: 3.97%.

With `O=C(c1ccco1)N(Cc1cccnc1)C1CCN(CCc2ccc(Cl)cc2)CC1`, the inhibition was inactive: 2.95%.

For `n1[nH]nc2c1c1n[nH]nc1c1n[nH]nc21`, the inhibition was inactive: -10.2%.

Regarding `CCOc1ccc(NP2(=O)C=C(Cl)N(C)C(=O)N2C)cc1` (stereo not drawn), the inhibition is inactive: -4.06%.

Consider `CC(C)(C)C(=O)NC(Sc1ncccn1)C(Cl)(Cl)Cl` (stereo not drawn), for which the inhibition is inactive: -1.81%.

Turning to `CCOP(=O)(CN)OCC`, the inhibition is inactive: 0.37%.

Consider `CN(CCCl)Cc1cc(Cl)c(NC2=NCCN2)c(Cl)c1`, for which the inhibition is inactive: -6.84%.

As to `O=P1(Nc2ccccn2)COc2ccccc2OC1`, the inhibition is inactive: 0.96%.

On to `O=[N+]([O-])c1cc([N+](=O)[O-])c(N2CCCCC2)c([N+](=O)[O-])c1`, for which the inhibition is inactive: -6.18%.

For the molecule `CCOc1ccc(NC(=O)c2ccc([N+](=O)[O-])cc2[N+](=O)[O-])c([N+](=O)[O-])c1`, the inhibition was inactive: 3.18%.

As to `COc1ccc2nc(SCc3ccc(C(=O)O)cc3)[nH]c2c1`, the inhibition is inactive: 8.13%.

Regarding `CCOP(=O)(NC(=NC(C)c1ccccc1)NC(C)c1ccccc1)OCC` (stereo not drawn), the inhibition was inactive: -3.42%.

Take `COc1cccc(OP(=O)(Nc2ccccn2)Oc2cccc(OC)c2)c1`: the inhibition was inactive: 12.2%.

With `CC(C)OP(=O)(Nc1ccc(Br)cc1)OC(C)C`, the inhibition is inactive: 11.9%.

Turning to `CC1(C)COP(=S)(N(C2=NCCC2)c2ccccc2)OC1`, the inhibition was inactive: 3.04%.

In the case of `CCCCOP(=O)(Nc1cccc(F)c1)OCCCC`, the inhibition is inactive: 2.66%.

Consider `O=C(Nc1cccc(F)c1)N(Cc1cccnc1)C1CCN(CCc2ccccn2)CC1`, for which the inhibition was inactive: -9.4%.

As for `Cc1c(N=Cc2ccc([N+](=O)[O-])cc2)cc([N+](=O)[O-])cc1[N+](=O)[O-]`, the inhibition is inactive: 6.72%.

As for `CCSP(=O)(c1ccccc1)c1ccccc1`, the inhibition was inactive: -5.24%.

In the case of `CC(=Nc1cc([N+](=O)[O-])ccc1C)NNc1ccc([N+](=O)[O-])cc1[N+](=O)[O-]`, the inhibition was inactive: -6.43%.

As for `COP(=O)(OC)Oc1c(Cl)c(Cl)c(O)c(Cl)c1Cl`, the inhibition was inactive: -10.7%.

As for `O=[N+]([O-])c1ccc(N/N=C/c2ccc([N+](=O)[O-])s2)c([N+](=O)[O-])c1`, the inhibition was inactive: 3.34%.

For `O=[N+]([O-])c1ccc(NCCN(CCO)c2ccc([N+](=O)[O-])cc2[N+](=O)[O-])c(Cl)c1`, the inhibition is inactive: 5.79%.

Regarding `COc1cc([N+](=O)[O-])cc([N+](=O)[O-])c1OCC(=O)N/N=C/c1ccc([N+](=O)[O-])o1`, the inhibition was inactive: 14.9%.

For `COc1ccccc1NC1=NCC(CBr)S1` (stereo not drawn), the inhibition is inactive: -3.02%.

Consider `O=C(/C=C/c1ccccc1)OC1CN2CCC1CC2` (stereo not drawn), for which the inhibition is inactive: 3.92%.

For `O=C(O)C(Cl)CSc1nc2ccccc2o1` (stereo not drawn), the inhibition is inactive: -15.8%.

For `CN(C)C1(CNC(=O)c2ccc(S(C)(=O)=O)cc2)CCCCC1`, the inhibition is inactive: 2.87%.

Consider `COCCN(CCOC)C(=O)COC(=O)C(O)(c1ccccc1)c1ccccc1`, for which the inhibition is inactive: 8.78%.

As for `O=C(Cc1ccc(F)cc1)N(Cc1ccco1)C1CCN(CCc2ccccn2)CC1`, the inhibition was inactive: -0.08%.

`O=[N+]([O-])c1ccc2c(c1)/C(=N\O)c1cc([N+](=O)[O-])cc([N+](=O)[O-])c1-2`: the inhibition is inactive: -0.42%.

`Cc1n[n+]2c([nH]c1=O)SCC(Br)C2c1ccccc1` (stereo not drawn): the inhibition was inactive: 3.6%.

On to `N#Cc1cccc(C(=O)N(Cc2ccco2)C2CCN(CCc3ccccn3)CC2)c1`, for which the inhibition was inactive: 1.9%.

Regarding `Cc1nn(-c2ccccc2)c2c1P(=O)(N1CCOCC1)N(C)C(c1ccccc1)=N2` (stereo not drawn), the inhibition is inactive: -9.67%.

In the case of `CC(C)NC(=O)N(Cc1cccnc1)C1CCN(CCc2ccccn2)CC1`, the inhibition was inactive: -1.16%.

On to `CCN1C(=O)N(c2ccccc2)P(=S)(OC)c2cc3c(cc21)OCCO3` (stereo not drawn), for which the inhibition is inactive: -11.4%.

In the case of `Cc1cc(SC(NC=O)C(Cl)(Cl)Cl)ncn1` (stereo not drawn), the inhibition was inactive: 13.8%.

`O=C(CF)NC(Sc1ccccc1)C(Cl)(Cl)Cl` (stereo not drawn): the inhibition is inactive: -1.65%.

`Cc1sc2nc3n(c(=O)c2c1C)CC(CI)S3` (stereo not drawn): the inhibition is inactive: -6.13%.

In the case of `CC(C)OP(=O)(OC(C)C)C(=O)c1ccccc1Cl`, the inhibition was inactive: 3.18%.

On to `CCCCOP(=S)(CC(=O)N(CC)CC)OCCCC`, for which the inhibition is inactive: 2.16%.

As for `CC(C)COP(=O)(Nc1ccc(Br)cc1)OCC(C)C`, the inhibition is inactive: 12.9%.

For the molecule `O=[N+]([O-])c1ccc(-c2nnc(SCCCl)o2)cc1`, the inhibition was inactive: 4.45%.

Take `CC(C)(C)C(=O)CSc1nc2ccccc2[nH]1`: the inhibition was inactive: -43.1%.

Consider `O=[N+]([O-])c1cccc(Nc2ccc([N+](=O)[O-])cc2[N+](=O)[O-])c1`, for which the inhibition is inactive: 3.91%.

Consider `O=C(Cc1ccc(F)cc1)N(Cc1ccco1)C1CCN(CCc2cccs2)CC1`, for which the inhibition is inactive: -6.52%.

On to `CC(C)OP(=O)(Nc1nc2ccccc2[nH]1)OC(C)C`, for which the inhibition was inactive: 6.84%.

Take `Nc1c([N+](=O)[O-])cc([N+](=O)[O-])c(Nc2ccc(S(N)(=O)=O)cc2)c1[N+](=O)[O-]`: the inhibition is inactive: 5.58%.

Values taken from PubChem BioAssay AID1259422 (The Scripps Research Institute Molecular Screening Center, 2018).
